Source: patent publication US6258780A (priority 1997, dated 2001)

Key:
[1] = BBB permeability to Evans Blue following stress, adrenaline or atropine (Example 2); conditions: following stress or 10 minutes after ip adrenaline or atropine
brain AChE = test: brain (cortical) AChE activity after injection in mice; type: in vivo, mouse

CNCC(O)c1ccc(O)c(O)c1 (stereo not drawn) [adrenaline]
BBB permeability to Evans Blue [1]: enhanced BBB permeability

CNC(=O)Oc1ccc2c(c1)[C@]1(C)CCN(C)[C@@H]1N2C [physostigmine]
inhibition of brain AChE activity (brain AChE; non-stressed mice, similar doses (0.1-0.5 mg/kg)): more than 50%
AChE activity in cerebral cortex, % of normal level (brain AChE; stressed mice, 0.1 mg/kg): < 50%
